What was measured:
human CRHR2b = target: T1, human CRHR2b (Homo sapiens, UniProt Q13324); assay: human CRHR2b cell-based cAMP assay; settings: CHO cells transfected with human CRHR2b, mean ± SEM of runs, read-out: hCRHR2b Average EC50
T1 construct: expressed in transfected cells; host or cells: Chinese Hamster Ovary (CHO) cells, transient transfection
T1 sequence (Q13324 1-438 isoform Q13324-2): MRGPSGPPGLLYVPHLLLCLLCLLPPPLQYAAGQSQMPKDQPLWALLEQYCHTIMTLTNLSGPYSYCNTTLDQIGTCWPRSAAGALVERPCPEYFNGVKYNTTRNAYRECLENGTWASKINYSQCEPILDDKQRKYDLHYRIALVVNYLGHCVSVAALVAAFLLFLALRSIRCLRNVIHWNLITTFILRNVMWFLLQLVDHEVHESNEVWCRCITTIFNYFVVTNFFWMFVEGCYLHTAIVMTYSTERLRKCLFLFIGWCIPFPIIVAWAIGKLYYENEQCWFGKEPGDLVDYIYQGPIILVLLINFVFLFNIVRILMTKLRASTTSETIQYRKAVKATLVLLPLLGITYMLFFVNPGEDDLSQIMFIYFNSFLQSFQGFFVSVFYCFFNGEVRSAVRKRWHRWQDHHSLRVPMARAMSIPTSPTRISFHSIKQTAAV
Method: CRHR agonistic activity is measured in a cell-based cAMP assay. Serial dilutions of the test peptides are made in assay buffer containing Hank's Balanced Salt Solution (HBSS, without phenol red) supplemented with 20 mM HEPES and 0.05% lactalbumin enzymatic hydrolysate (LAH) (“assay buffer”). […] A one to three dilution of the test peptides is used in both assays. Receptor over-expressing Chinese Hamster Ovary (CHO) cell line is used for the human CRHR2b assay. […] AF011406.1). Forty-eight hours after the transfection, the cells are centrifuged to remove the culture media and resuspended in fetal bovine serum containing 5% DMSO. They are cryofrozen and stored in vials in liquid nitrogen (20×10^6 cells/ml/vial). On the day of the assay, cells are thawed and resuspended in cold 30 ml culture media supplemented with 20 mM HEPES. The cells are then centrifuged to remove the media and washed once with HBSS supplemented with 20 mM HEPES. Finally, following the last centrifugation, the cells are resuspended in assay buffer. […] The agonist induced cAMP levels are detected using a HTRF cAMP Dynamic 2 kit (CisBio, Bedford, Mass.). […] HTRF detection is performed on an Envision plate reader (Perkin Elmer Life and Analytical Sciences, Waltham, Mass.) by measuring ratiometric emission at 620 and 665 nm after excitation at 320 nm. […] The data are analyzed using a Curve Fitting Tool to calculate ED50. […]

human CRHR1 = target: T2, human CRHR1 (Homo sapiens, UniProt P34998); assay: human CRHR1 cell-based cAMP assay (Y79 cells); settings: Y79 cells with endogenous human CRHR1, mean ± SEM of runs, read-out: hCRHR1 Average EC50
T2 construct: which expresses endogenous human CRHR1; host or cells: Y79 human retinoblastoma cells
T2 sequence (P34998 24-415): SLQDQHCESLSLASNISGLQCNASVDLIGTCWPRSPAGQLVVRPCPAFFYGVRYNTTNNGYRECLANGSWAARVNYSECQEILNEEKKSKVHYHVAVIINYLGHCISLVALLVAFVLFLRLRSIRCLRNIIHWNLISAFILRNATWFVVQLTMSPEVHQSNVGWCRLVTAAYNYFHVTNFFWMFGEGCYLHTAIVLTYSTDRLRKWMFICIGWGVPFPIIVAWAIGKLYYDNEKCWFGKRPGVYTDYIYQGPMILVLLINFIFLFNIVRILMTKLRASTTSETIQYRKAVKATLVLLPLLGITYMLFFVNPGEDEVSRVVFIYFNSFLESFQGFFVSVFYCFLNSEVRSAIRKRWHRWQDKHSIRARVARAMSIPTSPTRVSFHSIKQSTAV
Method: CRHR agonistic activity is measured in a cell-based cAMP assay. Serial dilutions of the test peptides are made in assay buffer containing Hank's Balanced Salt Solution (HBSS, without phenol red) supplemented with 20 mM HEPES and 0.05% lactalbumin enzymatic hydrolysate (LAH) (“assay buffer”). The highest concentration that is used starts from 1 μM in the human CRHR2b, whereas 100 μM starting concentration is used in the human CRHR1 assay. A one to three dilution of the test peptides is used in both assays.
The human Retinoblastoma cell line Y79 (ATCC #HTB-18), which expresses endogenous human CRHR1, is used in the human CRHR1 assay. […]
The cells are dispensed into Costar 96-well black polystyrene half area EIA/RIA plates (Corning Incorporated, Corning, N.Y.) followed by the addition of the diluted peptides, each at a volume of 20 μL. The agonist induced cAMP levels are detected using a HTRF cAMP Dynamic 2 kit (CisBio, Bedford, Mass.). […] HTRF detection is performed on an Envision plate reader (Perkin Elmer Life and Analytical Sciences, Waltham, Mass.) by measuring ratiometric emission at 620 and 665 nm after excitation at 320 nm.
The data are converted to picomoles of cAMP using a standard curve obtained from the same assay performed with varying concentrations of unlabeled cAMP. […] The data are analyzed using a Curve Fitting Tool to calculate ED50. […]

CC[C@H](C)[C@H](N)C(=O)N[C@H](C(=O)N[C@@H](CC(C)C)C(=O)N[C@@H](CO)C(=O)N[C@@H](CC(C)C)C(=O)N[C@@H](CC(=O)O)C(=O)N[C@H](C(=O)N1CCC[C@H]1C(=O)N[C@H](C(=O)NCC(=O)N[C@@H](CC(C)C)C(=O)N[C@@H](CC(C)C)C(=O)N[C@@H](CCC(N)=O)C(=O)N[C@H](C(=O)N[C@@H](CC(C)C)C(=O)N[C@@H](CC(C)C)C(=O)N[C@@H](CCC(=O)O)C(=O)N[C@@H](CCC(N)=O)C(=O)N[C@@H](C)C(=O)N[C@@H](CCCNC(=N)N)C(=O)N[C@@H](C)C(=O)N[C@@H](CCCNC(=N)N)C(=O)N[C@@H](C)C(=O)N[C@@H](C)C(=O)N[C@@H](CCCNC(=N)N)C(=O)N[C@@H](CCC(=O)O)C(=O)N[C@@H](CCC(N)=O)C(=O)N[C@@H](C)C(=O)N[C@H](C(=O)N[C@H](C(=O)N[C@@H](CC(N)=O)C(=O)N[C@@H](C)C(=O)N[C@@H](CCCNC(=N)N)C(=O)N[C@H](C(=O)N[C@@H](CC(C)C)C(=O)N[C@@H](C)C(=O)N[C@@H](CCCNC(=N)N)C(=O)N[C@H](C(N)=O)C(C)C)[C@@H](C)CC)[C@@H](C)O)[C@@H](C)O)[C@@H](C)CC)[C@@H](C)CC)C(C)C)C(C)C [hUCN2, reference compound]
EC50 (human CRHR2b): 0.19 ± 0.12 nM | EC50 (human CRHR1): > 100000 nM

Source: patent US10894817B2, “Fatty acid modified urocortin-2 analogs for the treatment of diabetes and chronic kidney disease” (priority 2016, dated 2021)
